# Test system: Rattus norvegicus
# Assay: Antinociceptive activity in iv dosed Sprague-Dawley rat assessed as hot plate latency compound administered as cumulative dose at 5 mins intervals by Hot-plate test
# Assay type: functional
# In short: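 Adult female and male Sprague-Dawley rats (10 weeks, n = 6, three per sex) with right external jugular vein catheter. Vehicle 5% Tween 80 + 5% propylene glycol in sterile water, 1.0 mL/kg i.v. After baseline, vehicle then ascending cumulative doses every 5 min, then naltrexone 0.1 mg/kg i.v. Plate at 52 °C, 60 s cutoff. Latency converted to %MPE; ED50 (95% CI) by linear regression.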
smiles,measurement,value
CN1CC[C@]23c4c5ccc(O)c4O[C@H]2[C@@H](O)C=C[C@H]3[C@H]1C5 [MORPHINE],ED50,12.1 mg/kg

# Reference: ChEMBL document CHEMBL4808166, “Exploring the Chemistry of Alkaloids from Malaysian Mitragyna speciosa (Kratom) and the Role of Oxindoles on Human Opioid Receptors” (J Nat Prod, 2021)
